The list shows a part of the results, in another mix than the full data. Calls of active or inactive are those of the source.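 Rule for the calls: active = inhibition above a set limit, 3 SD over the mean compound inhibition (cut at about 44% in these data); inactive = the rest.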
Assay: BB579 yeast growth reduction, restrictive medium – S. cerevisiae, yeast lifespan-shortening project, primary screen (AID 804)
Details: OD615, 48 h, at 10 µM, active compounds read high

Row | Compound | inhibition
1 | COc1ccc(OP(C)(=O)Nc2ccccc2Br)cc1 (centres undefined) | inactive: -4.71%
2 | COc1ccccc1OP(C)(=O)Nc1ccc(C)c(C)c1 (centres undefined) | inactive: -18.9%
3 | Cc1nc2ccc3ccccc3c2o1.O=[N+]([O-])c1cc([N+](=O)[O-])c(O)c([N+](=O)[O-])c1 | inactive: -37.2%
4 | CN(C)CCOC(=O)C(O)(c1ccccc1)C1CCCC1 (centres undefined) | inactive: -17.4%
5 | COc1ccc(OP(C)(=O)Nc2ccccn2)cc1 (centres undefined) | inactive: -19.8%
6 | Cc1c(NP(C)(=O)Oc2ccc(C(C)C)cc2)c(=O)n(-c2ccccc2)n1C (centres undefined) | inactive: 9.12%
7 | CCc1ccc(OP(C)(=O)O)cc1 | inactive: -23.7%
8 | COc1ccccc1OP(C)(=O)Nc1ccc(C)cc1C (centres undefined) | inactive: -29.6%
9 | CP(=O)(Nc1ccccn1)Oc1ccccc1 (centres undefined) | inactive: -0.51%
10 | COc1ccc(OP(C)(=O)Nc2ccc(Br)cc2)cc1 (centres undefined) | inactive: -11.2%
11 | CCN(CC)CC(O)COC(=O)C(O)(c1ccccc1)C1CCCCC1 (centres undefined) | inactive: -14.4%
12 | CP(=O)(Oc1ccccc1)N1CCOC1=O (centres undefined) | inactive: -1.18%
13 | CP(=O)(Nc1ccc(Cl)cc1)Oc1ccc(F)cc1 (centres undefined) | inactive: -25.4%
14 | CC(C)(C)c1ccc(OP(C)(=O)O)cc1 | inactive: -12.7%
15 | CP(=O)(OC12CC3CC(CC(C3)C1)C2)OC12CC3CC(CC(C3)C1)C2 | inactive: -22%
16 | CCOC(=O)c1ccc(NP(C)(=O)Oc2ccc(Cl)cc2)cc1 (centres undefined) | inactive: -23.6%
17 | COc1ccc(OP(C)(=O)Nc2cccc(Br)c2)cc1 (centres undefined) | inactive: -12.7%
18 | CN(C)CCOC(=O)C(O)(c1ccccc1)C1CCCCC1 (centres undefined) | inactive: -40.5%
19 | CCOP(C)(=S)SCC(=O)NC(C)(CC)C(=O)O (centres undefined) | inactive: -48.8%
20 | CP(=O)(Nc1ccc2c(c1)OCCO2)Oc1ccccc1 (centres undefined) | inactive: -9.96%
21 | Cc1ccccc1NP(C)(=O)Nc1ccccc1C | inactive: -24.6%
22 | CC(C)c1ccc(OP(C)(=O)Nc2ccc(SC(F)(F)F)cc2)cc1 (centres undefined) | inactive: -22.4%
23 | CP(=O)(Nc1ccccc1F)Oc1ccccc1 (centres undefined) | inactive: -29.2%
24 | O=C(OCCN1CCN(CCOCc2ccccc2)CC1)C(O)(c1ccccc1)c1ccccc1 | inactive: 4.3%
25 | CCOC(=O)c1ccc(NP(C)(=O)Oc2ccc(F)cc2)cc1 (centres undefined) | inactive: -14.8%

Row | Compound | inhibition
26 | CCN(CC)CCCOC(=O)C(O)(c1ccccc1)C1CCCCC1 (centres undefined) | inactive: -11.2%
27 | CP(=O)(Nc1ccccc1)Oc1ccc(F)cc1 (centres undefined) | inactive: -17.6%
28 | CC1=NCCc2c1[nH]c1ccccc21.O=[N+]([O-])c1cc([N+](=O)[O-])c(O)c([N+](=O)[O-])c1 | inactive: -41.6%
29 | Cc1cc(C)cc(OP(C)(=O)Nc2ccc(C)cc2C)c1 (centres undefined) | inactive: -9.2%
30 | CCOC(=O)c1ccc(NP(C)(=O)Oc2cc(C)cc(C)c2)cc1 (centres undefined) | inactive: 5.2%
31 | Cc1cc(C)cc(OP(C)(=O)Nc2ccccn2)c1 (centres undefined) | inactive: 2.56%
32 | Cc1ccc(C)c(NP(C)(=O)Oc2ccccc2)c1 (centres undefined) | inactive: -21.1%
33 | Cc1nc2ccc3ccccc3c2s1.O=[N+]([O-])c1cc([N+](=O)[O-])c(O)c([N+](=O)[O-])c1 | inactive: -2.31%
34 | COc1ccccc1OP(C)(=O)Nc1c(C)cccc1C (centres undefined) | inactive: -31.6%
35 | CN1CCCCC1COC(=O)C1(O)c2ccccc2CCc2ccccc21 (centres undefined) | inactive: -5.7%
36 | CP(=O)(Nc1ccc(SC(F)(F)F)cc1)Oc1ccccc1 (centres undefined) | inactive: -18.6%
37 | CP(=S)(Nn1cnnc1)Oc1ccccc1 (centres undefined) | inactive: -18.5%
38 | CP(=O)(Nc1ccccc1Br)Oc1ccccc1 (centres undefined) | inactive: 8.49%
39 | Cc1cccc(C)c1OP(C)(=O)Nc1ccc(SC(F)(F)F)cc1 (centres undefined) | inactive: -29.1%
40 | Cc1cc(C)cc(OP(C)(=O)Nc2ccc(SC(F)(F)F)cc2)c1 (centres undefined) | inactive: -39.7%
41 | CP(=O)(NC(=O)Nc1ccccc1)Oc1ccccc1 (centres undefined) | inactive: -36.5%
42 | CCOP(C)(=S)SCC(=O)NC(C)C(=O)O (centres undefined) | inactive: 12%
43 | CCOC(=O)c1ccc(NP(C)(=O)Oc2ccc(OC)cc2)cc1 (centres undefined) | inactive: -7.98%
44 | CP(=O)(Nc1ccccn1)Oc1ccc(Cl)cc1 (centres undefined) | inactive: -45.2%
45 | CC(C)(C)c1ccc(OP(C)(=O)Nc2ccc(SC(F)(F)F)cc2)cc1 (centres undefined) | inactive: -16.8%
46 | CCOC(=O)c1ccc(NP(C)(=O)Oc2ccccc2)cc1 (centres undefined) | inactive: -17.6%
47 | Cc1ccc(NP(C)(=O)Oc2ccccc2)c(C)c1 (centres undefined) | inactive: -62.8%
48 | COc1ccccc1OP(C)(=O)Nc1ccc(C)cc1 (centres undefined) | inactive: -9.95%
49 | COc1ccc(OP(C)(=O)Nc2cccc(F)c2)cc1 (centres undefined) | inactive: -21.1%
